From patent publication US3991199A, “Pyridoindoles” (Endo Laboratories, Inc., priority 1974, dated 1976)

Tested on: phenyl-p-benzoquinone writhing
Assay: Phenylquinone Writhing (PQW), analgesic
Format: in vivo, mouse
Details: for PQW mouse ED50: po

Row | SMILES | PQW mouse ED50 [mg/kg] | other results
1 | CN1CC[C@@H]2[C@@H](C1)c1ccccc1N2c1cccc(C(F)(F)F)c1 (relative stereo) | 24 | –
2 | CCN1CC[C@@H]2[C@@H](C1)c1ccccc1N2c1ccccc1.Cl (racemic) | 1 | –
3 | c1ccc(N2c3ccccc3[C@@H]3CN(CC4CC4)CC[C@H]32)cc1 (relative stereo) | 3 | –
4 | c1ccc(N2c3ccccc3[C@@H]3CNCC[C@H]32)cc1 (single isomer, unassigned) | 0.9 | separation of analgesic activity from sedative activity (difference in dose) (analgesic vs sedative dose): 10 fold; analgesic potency relative to aspirin (mice): 100 times; analgesic potency relative to codeine (mice): about 20 times; Analgesic Dose (mice) (mice, comparison table): 1 mg/kg
5 | CC(C)(C)N1CC[C@@H]2[C@@H](C1)c1ccccc1N2c1ccccc1.Cl (racemic) | 40 | –
6 | CC(C)(C)CN1CC[C@@H]2[C@@H](C1)c1ccccc1N2c1ccccc1.Cl (racemic) | 13 | –
7 | C#CCN1CC[C@@H]2[C@@H](C1)c1ccccc1N2c1ccccc1 (relative stereo) | 3 | –
8 | CC(C)CN1CC[C@@H]2[C@@H](C1)c1ccccc1N2c1ccccc1 (racemic) | 4 | –
9 | Brc1ccc(N2c3ccc(Br)cc3[C@@H]3CNCC[C@H]32)cc1.Cl (racemic) | 19 | –
10 | c1ccc(N2c3ccccc3[C@@H]3CN(C4CC4)CC[C@H]32)cc1 (relative stereo) | 21 | –
11 | CN1CC[C@@H]2[C@@H](C1)c1cc(Br)ccc1N2c1ccc(Br)cc1.Cl (racemic) | 2.5 | –
12 | c1ccc(N2c3ccccc3[C@@H]3CN(C4CCCC4)CC[C@H]32)cc1 (relative stereo) | 7.7 | –
13 | CC(C)N1CC[C@@H]2[C@@H](C1)c1ccccc1N2c1ccccc1.Cl (racemic) | 2.6 | –
14 | c1ccc(N2c3ccccc3[C@@H]3CN(CC4CCC4)CC[C@H]32)cc1 [compound of Example 2, (+)-trans-2-(cyclobutylmethyl)-2,3,4,4a,5,9b-hexahydro-5-phenyl-1H-pyrido[4,3-b]indole] | 2 | –
15 | CN1CC[C@@H]2[C@@H](C1)c1ccccc1N2c1ccccc1.Cl | 4 | –
16 | C=CCN1CC[C@@H]2[C@@H](C1)c1ccccc1N2c1ccccc1 (racemic) | 4 | –
